# pEC50: −log10 of the molar value.
# Biological target: T1, thioredoxin reductase (EhTrxR) (Entamoeba histolytica, UniProt C4LW95)
# T1 sequence (C4LW95 1-314): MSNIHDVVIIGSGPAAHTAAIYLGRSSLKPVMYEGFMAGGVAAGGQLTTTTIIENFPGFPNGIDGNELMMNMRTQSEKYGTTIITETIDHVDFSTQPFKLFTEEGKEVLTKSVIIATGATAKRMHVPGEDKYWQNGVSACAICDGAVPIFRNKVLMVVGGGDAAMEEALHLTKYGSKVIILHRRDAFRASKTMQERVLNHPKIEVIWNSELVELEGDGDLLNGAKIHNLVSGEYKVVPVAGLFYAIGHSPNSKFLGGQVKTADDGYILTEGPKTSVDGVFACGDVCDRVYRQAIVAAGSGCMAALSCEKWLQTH
# Assay: Trx/DTNB-coupled TNB release assay at […] nm with purified EhTrxR
# Format: biochemical
smiles,measurement,value
CC[P](CC)(CC)=[Au][S][C@@H]1O[C@H](COC(C)=O)[C@@H](OC(C)=O)[C@H](OC(C)=O)[C@H]1OC(C)=O [Auranofin],pEC50,6.40
